This is an account of results in US7727980B2, “Tricyclic androgen receptor modulator compounds and methods” (priority 2001, dated 2010).

Amino acid sequences for entries named in this document (tags omitted). A change or cut given only in a name is not applied to a line headed by its entry.
UniProt P10275: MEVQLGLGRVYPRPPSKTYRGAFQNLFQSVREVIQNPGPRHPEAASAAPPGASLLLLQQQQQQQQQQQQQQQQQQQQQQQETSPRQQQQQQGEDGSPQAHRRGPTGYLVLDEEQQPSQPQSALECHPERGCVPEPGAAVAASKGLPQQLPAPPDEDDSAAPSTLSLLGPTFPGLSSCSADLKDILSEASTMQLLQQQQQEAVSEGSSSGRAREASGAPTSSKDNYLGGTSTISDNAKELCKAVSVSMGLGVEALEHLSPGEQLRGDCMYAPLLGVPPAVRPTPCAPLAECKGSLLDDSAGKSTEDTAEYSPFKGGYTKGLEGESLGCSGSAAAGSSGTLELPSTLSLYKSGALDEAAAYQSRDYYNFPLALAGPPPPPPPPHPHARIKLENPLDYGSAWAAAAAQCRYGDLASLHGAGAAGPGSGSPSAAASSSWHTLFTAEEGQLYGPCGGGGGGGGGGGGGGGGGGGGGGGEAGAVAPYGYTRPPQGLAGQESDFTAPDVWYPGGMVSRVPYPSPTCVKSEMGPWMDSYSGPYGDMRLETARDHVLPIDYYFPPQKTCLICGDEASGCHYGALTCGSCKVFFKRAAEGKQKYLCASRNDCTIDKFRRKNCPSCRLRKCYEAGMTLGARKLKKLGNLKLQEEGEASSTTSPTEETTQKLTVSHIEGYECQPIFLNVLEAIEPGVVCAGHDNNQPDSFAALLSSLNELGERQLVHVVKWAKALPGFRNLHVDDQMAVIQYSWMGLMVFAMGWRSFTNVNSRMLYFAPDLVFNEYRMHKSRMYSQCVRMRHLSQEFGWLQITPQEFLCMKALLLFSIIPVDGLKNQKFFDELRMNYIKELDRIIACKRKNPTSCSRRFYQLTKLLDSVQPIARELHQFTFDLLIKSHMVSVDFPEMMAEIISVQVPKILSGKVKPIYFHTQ

Like-named read-outs stand apart in the source and are kept apart here. Bounds are passed on as bounds.

In assay [1] the target is T1, human AR (Homo sapiens, UniProt P10275). Kind of assay: Co-transfection assay, AR agonist activity, CV-1 cells. Format: cell-based. Further details: expressed in transfected cells; host or cells: CV-1 cells (African green monkey kidney fibroblasts), transient transfection with pRShAR. The note with it: for AR Agonist CV-1 Cells Efficacy (%): percent maximal response relative to reference agonist DHT.

Assay [2] addresses T1, human AR. The experiment in a line: AR whole cell competitive binding assay (3H-DHT), transfected COS-1 cells. Further details: expressed in transfected cells; transient transfection with pRShAR. The note with it: 1 nM 3H-DHT, Cheng-Prusoff from IC50.
Assay [3] concerns the target T1, human AR. Kind of assay: Co-transfection assay, AR antagonist activity in presence of DHT, CV-1 cells. In kind it is cell-based. The note with it: for IC50: antagonist potency or IC50, DHT at its EC50 concentration; for AR Antagonist CV-1 Cells Efficacy (%): percent maximal inhibition, DHT at its EC50 concentration. More on the design: expressed in transfected cells; host or cells: CV-1 cells (African green monkey kidney fibroblasts), transient transfection with pRShAR.

Setting [4] is: AR Agonist CV-1 Cells Potency (nM), agonist potency or EC50.
The mark [5] stands for this setting: agonist potency or EC50, read-out: AR Agonist CV-1 Cells Potency.

Molecule `O=c1cc(C(F)(F)F)c2cc3c(cc2[nH]1)CCCN3CC1CC1` [Compound 201, 4-Trifluoromethyl-6-cyclopropylmethyl-6,7,8,9-tetrahydropyrido[2,3-g]quinolin-2(1H)-one] gave an EC50 on human AR [1] (setting [4]) of 11 nM.

Turning to `O=c1cc(C(F)(F)F)c2c3c(ccc2[nH]1)N(Cc1ccoc1)C1CCCC31` (racemic) [Compound 126, (±)-4c,5,6,7,7a(cis),8-Hexahydro-8-(3-furanylmethyl)-4-trifluoromethyl-cyclopentano[g]pyrrolo[3,2-f]quinolin-2(1H)-one], on human AR [1] (setting [4]), the EC50 worked out at 11 nM.

On human AR [2], “5-Methyl-6-acetyl-7-(2,2,2-trifluoroethyl)-4-trifluoromethyl-7H-pyrrolo[3,2-f]quinolin-2(1H)-one [Compound 166]” had a Ki of 17 nM. On human AR [1] (setting [5]), the EC50 amounted to 24 nM. For the same molecule, the “AR Agonist CV-1 Cells Efficacy (%)” value on human AR [1] is reported as 96%. Moreover, at human AR [3], the 50% inhibitory concentration (IC50) was greater than 10000 nM; the “AR Antagonist CV-1 Cells Efficacy (%)” value was “na (na = not active (i.e. efficacy of <20 and potency of >10,000))”.

The molecule `CCN1c2ccc3[nH]c(=O)cc(C(F)(F)F)c3c2CCC1(C)C` [Compound 108, 8-Ethyl-5,6,7,8-tetrahydro-7,7-dimethyl-4-trifluoromethylpyridino[3,2-f]quinolin-2(1H)-one] showed an EC50 on human AR [1] (setting [4]) of 24 nM.

On human AR [1] (setting [4]), `CC1CCc2cc3[nH]c(=O)cc(C(F)(F)F)c3cc2N1CC1CC1` (centres unmarked) [Compound 195, 4-Trifluoromethyl-7-methyl-6-cyclopropylmethyl-6,7,8,9-tetrahydropyrido[2,3-g]quinolin-2(1H)-one] had an EC50 of 11 nM.

Take “(±)-6,7-Dihydro-6-ethyl-4-trifluoromethyl-8H-pyrano[3,2-g]quinolin-2(1H)-one [Compound 216]”: affinity on human AR [2] was put at a Ki of 8.1 nM. Besides, the EC50 on human AR [1] (setting [5]) was determined as 11 nM. Moreover, the “AR Agonist CV-1 Cells Efficacy (%)” value on human AR [1] came out at 55%. Further, at human AR [3], the IC50 stood at 4300 nM and the “AR Antagonist CV-1 Cells Efficacy (%)” value was found to be 28%.

Usually Ki stands for the equilibrium dissociation constant of an inhibitor or competing ligand from its target. One may read the IC50 as the point on the concentration scale where inhibition reaches its midpoint.
